Earlier results as cited in article PMC4554392 (International Journal of Nanomedicine, 2015).

Tested on: pathogen-induced macrophages isolated from human bone marrow
Conditions: in vitro and in vivo

## human beta-defensin 3 [hBD3]
  Proinflammatory cytokines, such as TNF-α and IL-6: completely blocked
